{
  "sequences": {"note": "Chains of the proteins cited; added tags and fusions are not shown. Lines headed by an entry give the natural chain unless they say otherwise; changes in a name come on top.", "UniProt P41145": "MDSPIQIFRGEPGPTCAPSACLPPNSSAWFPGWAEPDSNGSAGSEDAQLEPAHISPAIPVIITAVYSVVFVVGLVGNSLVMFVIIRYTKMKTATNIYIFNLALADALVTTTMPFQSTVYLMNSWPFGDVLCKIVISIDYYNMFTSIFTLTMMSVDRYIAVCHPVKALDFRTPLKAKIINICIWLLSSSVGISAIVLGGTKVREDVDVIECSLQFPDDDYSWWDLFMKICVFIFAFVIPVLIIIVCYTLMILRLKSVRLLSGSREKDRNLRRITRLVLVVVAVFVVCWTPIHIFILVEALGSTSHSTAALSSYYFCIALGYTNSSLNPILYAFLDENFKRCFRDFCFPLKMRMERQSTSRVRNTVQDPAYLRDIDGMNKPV"},
  "source": "ChEMBL document CHEMBL1145019",
  "about": "“The power of visual imagery in drug design. Isopavines as a new class of morphinomimetics and their human opioid receptor binding activity” (J Med Chem, 2003)",
  "biological_target": "Kappa-type opioid receptor (Homo sapiens, UniProt P41145)",
  "test": "biochemical",
  "format": "cell-based, HEK293",
  "data": [
    {"smiles": "COc1ccc2c3c1O[C@H]1[C@@H](O)C=C[C@H]4[C@@H](C2)N(C)CC[C@@]341", "note": "[CODEINE]", "values": [
      {"measurement": "IC50", "result": 15, "unit": "µM"}
    ]}
  ]
}
